Experimental data as given in PubChem BioAssay AID2445 (The Scripps Research Institute Molecular Screening Center, 2010).
This is a selection; strong and weak results do not stand in their true shares. Activity calls are given as the source filed them.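 The calls were made as follows: active = activation above that plate's cutoff, the mean activation of tested compounds plus 3 SD (cut at about 6.6% in these data, passing the limit was not always enough); inactive = the rest.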

Sequences of proteins named here, by UniProt entry; tags and fusion partners are left off.
UniProt P30559, whole entry: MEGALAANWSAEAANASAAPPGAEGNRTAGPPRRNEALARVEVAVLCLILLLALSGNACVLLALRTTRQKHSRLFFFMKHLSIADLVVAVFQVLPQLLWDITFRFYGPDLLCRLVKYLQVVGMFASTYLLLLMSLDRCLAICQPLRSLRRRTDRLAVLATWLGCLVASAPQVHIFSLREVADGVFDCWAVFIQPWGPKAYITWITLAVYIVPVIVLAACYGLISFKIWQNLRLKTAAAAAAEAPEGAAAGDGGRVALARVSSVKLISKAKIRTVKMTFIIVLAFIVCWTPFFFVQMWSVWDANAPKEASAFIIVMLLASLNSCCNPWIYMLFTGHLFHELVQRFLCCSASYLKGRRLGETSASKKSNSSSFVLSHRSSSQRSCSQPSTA

molecular target: Oxytocin receptor (Homo sapiens) (UniProt P30559); test: enhancers of oxytocin-evoked OXTR calcium signal – fluorescence, CHO-OTR cells, Fluo-8 calcium, primary screen (AID 2445); settings: Fluo-8 calcium fluorescence, potentiator mode, at 3 µM, stronger effect = higher value, 0% = oxytocin EC15, 100% = EC100;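 also: 100% uses oxytocin at 75 nM as the full agonist control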

Structure (SMILES) | activation
CCC(=O)N(c1ccccc1)C1(COC)CCN(CCc2cccs2)CC1 | inactive: -4.41%
CCC(=O)N(c1ccccc1)C1(COC)CCN(CCn2nnn(CC)c2=O)CC1 | inactive: -3.53%
